Where two headings read alike, the source gives them in different places.
How the values were obtained:
[1] = system: human right saphenous vein (RSV); assay: tissue or blood
[2] = system: isolated human blood vessels
[3] = system: human right saphenous vein (RSV)
[4] = system: isolated human blood vessels; assay: tissue or blood; conditions: read-out: apparent EC50s in all three human vessels, approximate range
rat thoracic aorta (TA) = conditions: 10 min; for % Response, contraction (C), rat Old W thoracic aorta / % Response, relaxation (R), rat Old W thoracic aorta: NE-precontracted (1 μM) TA of 1-yr old Wistar rats; for % Response, contraction (C), rat Old W thoracic aorta / % Response, relaxation (R), rat Old W thoracic aorta / % Response, contraction (C), rat Young SD thoracic aorta / % Response, relaxation (R), rat Young SD thoracic aorta: 1 mmol/L, mean ± SE; for % Response, contraction (C), rat Young SD thoracic aorta / % Response, relaxation (R), rat Young SD thoracic aorta: NE-precontracted (1 μM) TA of 18-20 week old Sprague-Dawley rats
[5] = read-out: Apparent EC50, contraction (C), RSV
[6] = read-out: Apparent EC50, relaxation (R), RSV
[7] = NE-precontracted (1 μM) RSV, 10 min exposure to 1 mmol/L, mean ± SE

| SMILES | EC50 [1, 5] [µM] | EC50 [1, 6] [µM] | lowest formaldehyde concentration to which a vessel responded ([2]; 6 human vessels (3 LIMA and 3 RSV), cumulative concentrations) [mmol/L] | overt toxicity (near complete loss of tension response to HI K+ after washout), human vessels ([2]; formaldehyde 1 mmol/L, 10 min, 3 LIMA and 3 RSV) | % Response, contraction (C), RSV [3] [%] | % Response, relaxation (R), RSV [3] [%] | EC50 [4] [µM] | % Response, contraction (C), rat Old W thoracic aorta (rat thoracic aorta (TA)) [%] | % Response, relaxation (R), rat Old W thoracic aorta (rat thoracic aorta (TA)) [%] | % Response, contraction (C), rat Young SD thoracic aorta (rat thoracic aorta (TA)) [%] | % Response, relaxation (R), rat Young SD thoracic aorta (rat thoracic aorta (TA)) [%] | overt toxicity (near complete loss of tension response to HI K+ after washout), rat TA (rat thoracic aorta (TA); formaldehyde 1 mmol/L, vessels affected of vessels exposed) | % Response, contraction (C), RSV [3, 7] [%] | % Response, relaxation (R), RSV [3, 7] [%] | % Relaxation, RSV [3] [%] | effect of pretreatment on methylamine responses in RSV [3] |
| --- | --- | --- | --- | --- | --- | --- | --- | --- | --- | --- | --- | --- | --- | --- | --- | --- |
| C=O [Formaldehyde, formaldehyde] | 315 | 315 | ≥ 1 | none of the 6 | 2.6 ± 2.6 | 31.7 ± 15.9 | 200 to 300 | 2.6 ± 1.8 | 37.5 ± 16.2 | 2.1 ± 2.1 | 37.5 ± 21.6 | 2 of 18 | – | – | – | – |
| OO [H2O2, hydrogen peroxide] | 220 ± 38 | 315 | – | – | – | – | 200 to 300 | 13.6 ± 3.1 | 56.6 ± 6.3 | 41.2 ± 11.5 | 50.8 ± 18.2 | – | 25.4 ± 5.6 | 6.5 ± 3.2 | – | – |
| CN [methylamine] | 200 ± 52 | 230 ± 28 | – | – | 17.4 ± 3.8 | 20.6 ± 4.3 | – | – | – | – | – | – | – | – | 57.2 ± 6.2 | – |
| NNC(N)=O [semicarbazide] | – | – | – | – | – | – | – | – | – | – | – | – | – | – | – | completely blocked methylamine responses in RSV |
